The values that follow are results of earlier work, collected in paper PMC13062086, “A sstR2-targeted radiohybrid theranostic agent for PET imaging and β^- therapy with excellent preclinical performance” (npj Imaging, 2026).

Chains of the proteins cited; added tags and fusions are not shown. Residues count along the entry.
UniProt P02768, 25-609: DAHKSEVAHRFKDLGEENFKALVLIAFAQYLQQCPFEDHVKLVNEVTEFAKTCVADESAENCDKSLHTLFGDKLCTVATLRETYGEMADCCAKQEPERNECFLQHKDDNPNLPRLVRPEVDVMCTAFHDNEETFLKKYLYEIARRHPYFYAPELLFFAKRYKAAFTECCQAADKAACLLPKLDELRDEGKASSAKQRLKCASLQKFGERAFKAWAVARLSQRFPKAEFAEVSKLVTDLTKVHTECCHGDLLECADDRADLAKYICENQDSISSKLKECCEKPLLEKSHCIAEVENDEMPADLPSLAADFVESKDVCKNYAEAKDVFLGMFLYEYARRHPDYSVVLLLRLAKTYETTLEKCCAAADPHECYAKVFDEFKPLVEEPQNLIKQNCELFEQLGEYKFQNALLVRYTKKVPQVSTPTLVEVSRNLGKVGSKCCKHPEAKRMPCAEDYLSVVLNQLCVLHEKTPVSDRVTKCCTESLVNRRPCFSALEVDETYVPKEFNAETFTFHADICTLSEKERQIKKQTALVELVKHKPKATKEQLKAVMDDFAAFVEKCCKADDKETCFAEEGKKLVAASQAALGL

SMILES strings stand for the structures.

For this data set, the target named is T1, human serum albumin (HSA) (Homo sapiens, UniProt P02768).
T1 construct: purchased Daicel, Tokyo, Japan Chiralpak HSA column (50 × 3 mm, 5 μm, H13 h-2433)
Details: method as in earlier work. Conditions: literature-known values for calibration curve ref 2-3 (SI; main text 45, 46).

For the compound `NC(=O)N1c2ccccc2C=Cc2ccccc21` [Carbamazepine], the HSA-binding is recorded as 75.00%.
